Literature values, collected in patent US9365511B2, “Biphenyl-ethyl-pyrrolidine derivatives as histamine H3 receptor modulators for the treatment of cognitive disorders” (Arena Pharmaceuticals, Inc., priority 2013, dated 2016).

Amino acid sequences for entries named in this document (tags omitted). A change or cut given only in a name is not applied to a line headed by its entry.
UniProt Q9QYN8: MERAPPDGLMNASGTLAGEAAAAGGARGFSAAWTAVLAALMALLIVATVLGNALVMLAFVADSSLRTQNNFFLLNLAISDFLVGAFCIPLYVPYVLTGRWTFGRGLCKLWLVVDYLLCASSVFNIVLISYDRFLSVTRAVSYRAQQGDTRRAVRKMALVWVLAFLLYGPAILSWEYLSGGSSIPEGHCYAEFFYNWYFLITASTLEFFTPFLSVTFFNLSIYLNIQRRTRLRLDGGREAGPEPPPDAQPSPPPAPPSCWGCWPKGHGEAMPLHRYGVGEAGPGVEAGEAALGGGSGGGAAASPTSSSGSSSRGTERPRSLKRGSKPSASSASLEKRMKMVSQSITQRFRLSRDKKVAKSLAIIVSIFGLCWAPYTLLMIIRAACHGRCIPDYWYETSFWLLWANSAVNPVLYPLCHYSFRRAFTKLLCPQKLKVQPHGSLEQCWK

Target: rat H3 receptor (Rattus norvegicus (Rat), UniProt Q9QYN8)
Details: radioligand constant used for Cheng-Prusoff conversion; cited from earlier work

Substance: [^3H]N-methylhistamine
- Kd: 0.4 nM
